Results published in patent US20220370546A1, “PEPTIDE, COMPOSITION, AND METHOD FOR TREATING, PREVENTING, OR AMELIORATING MOOD DISORDER” (KYOTO UNIVERSITY, priority 2019, published 2022).

Test system: ddY mice
Test: Tail suspension test (evaluation of motivation-enhancing effect)
Assay type: in vivo
Conditions: oral, in saline, n=5; 0.2 μmol/kg body weight; tail suspension test 30 minutes after administration
Method: Each of the prepared peptides was administered to mice (ddY mice (5-week-old male mice 24 to 28 g in body weight)) by the method shown below. The mice were then subjected to a tail suspension test for the evaluation of a motivation-enhancing effect.
Each peptide was dissolved in saline. The solution was orally administered to mice (n=5) such that each of peptides 3, 4, and 8 was administered in a dose of 0.3 mg/kg body weight and each of peptides 1, 2, 5, 6, and 7 was administered in a dose of 0.2 μmol/kg body weight. Control mice (n=5) were orally administered with only saline. Each of the mice was subjected to a tail suspension test in which the peptide of the present invention was evaluated for its efficacy to enhance motivation.
Thirty minutes after the administration of the peptide, each mouse was suspended with its tail fixed 30 cm above the floor. Subsequently, during a period of 6 minutes from the start of the test (0 minutes), the time (immobility time) during which the mouse remained in a motionless state, observed after the start of escape behavior, was measured, and the measurements were averaged. The motionless state is known as “despair state”. […] This means that materials effective in enhancing motivation in this test may be effective in treating, preventing, or ameliorating mood disorders.
The results shown in FIG. 1 are the values relative to the immobility time of the control group, which is normalized to 100%, with respect to the mice administered with each peptide.

## Peptide 5: A peptide consisting of the amino acid sequence represented by SEQ ID NO: 5 (QS); comparison dipeptide
  motivation-enhancing effect: cannot have a sufficient level of motivation-enhancing effect

## Peptide 6: A peptide consisting of the amino acid sequence represented by SEQ ID NO: 6 (QK); comparison dipeptide
  motivation-enhancing effect: cannot have a sufficient level of motivation-enhancing effect

## Peptide 7: A peptide consisting of the amino acid sequence represented by SEQ ID NO: 7 (SQ); comparison dipeptide
  motivation-enhancing effect: cannot have a sufficient level of motivation-enhancing effect
